This is an account of results in US20080015237A1 (ASTRAZENECA AB, priority 2006, published 2008).

Chains of the proteins cited; added tags and fusions are not shown.
UniProt P22460, whole entry: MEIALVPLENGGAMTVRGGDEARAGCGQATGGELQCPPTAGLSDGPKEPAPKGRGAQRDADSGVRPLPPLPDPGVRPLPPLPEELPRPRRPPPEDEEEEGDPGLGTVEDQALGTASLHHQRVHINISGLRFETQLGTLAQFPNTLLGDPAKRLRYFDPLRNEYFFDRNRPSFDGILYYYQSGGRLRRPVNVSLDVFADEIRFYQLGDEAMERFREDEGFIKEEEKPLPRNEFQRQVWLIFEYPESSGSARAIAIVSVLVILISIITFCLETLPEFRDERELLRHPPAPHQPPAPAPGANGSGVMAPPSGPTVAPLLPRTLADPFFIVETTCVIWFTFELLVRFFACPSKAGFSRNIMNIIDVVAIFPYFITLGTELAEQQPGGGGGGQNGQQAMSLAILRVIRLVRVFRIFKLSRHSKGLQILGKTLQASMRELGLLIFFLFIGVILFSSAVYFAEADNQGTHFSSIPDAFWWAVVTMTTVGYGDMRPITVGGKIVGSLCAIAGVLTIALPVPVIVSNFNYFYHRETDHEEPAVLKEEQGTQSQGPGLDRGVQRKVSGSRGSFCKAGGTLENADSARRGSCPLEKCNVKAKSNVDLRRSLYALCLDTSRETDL

For this test, the target named is human Kv1.5 channel (Homo sapiens, UniProt P22460). Put plainly: Test A: Rb+ efflux assay. It counts as cell-based. As to conditions: CHO cells stably transfected with cDNA for human Kv1.5. The method, then:
This assay identifies compounds that block the human Kv1.5 channel potassium channel heterologously expressed in Chinese Hamster Ovary (CHO) cells by means of Rb+ ion efflux using Flame Atomic Absorption Spectroscopy. For experimental studies, CHO cells stably transfected with cDNA for human Kv1.5 were grown as confluent layers in Falcon, 384-well tissue culture-treated black-walled clear-bottomed plates and the plates were incubated overnight at 37° C. in a cell culture incubator.
After incubating overnight the cell plates were washed and a buffer containing Rb+ ions were added to the cell plates. The plates were then incubated for another 3-4 hours in a CO2-incubator (37° C.). Following this incubation period plates were washed, compounds were added and subsequently a buffer containing elevated K+ concentrations were added in order to activate the Kv1.5 channel. Following a short incubation time, aliquots of the supernatants were transferred to supernatant plates for subsequent determination of the Rb+ content using Atomic Absorption Spectrometry (ICR8000 instrument, Aurora Biomed Inc.). The basal Rb+ efflux (conc. mg/L in wells receiving only wash buffer) was defined as 100% inhibition and the stimulated Rb+ efflux (conc. mg/L in wells receiving only buffer containing elevated concencentrations of K^+ ions) was defined as 0% inhibition.

One may read the IC50 as the concentration that gives 50% inhibition. Read a high IC50 as a need for much substance. In turn, `CC(C)(C)NC(=O)C1c2ccccc2C(=O)N1Cc1ccccc1-c1ccccc1` (stereo not shown) [2-(biphenyl-2-ylmethyl)-N-tert-butyl-3-oxoisoindoline-1-carboxamide] came in with an IC50 of 3.3 µM.
